Some of these compounds have results that are not shown, active ones among them.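 Growth conditions: 96-well plates. Treatment: test compound, 48 hours, 5 concentrations. Analysis: linear interpolation between bracketing concentrations; unreached endpoints set to highest concentration. GI50: concentration for 50% inhibition of growth.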
Tests used:
Assay in all cases: NCI-60 cell line screen, 48 h; in the data active = GI50 below about 0.43 µM; inactive = the rest
OVCAR-3 ovarian = system: OVCAR-3 ovarian
SF-295 CNS = system: SF-295 CNS
CCRF-CEM leukemia = system: CCRF-CEM leukemia
T-47D breast = system: T-47D breast
SR leukemia = system: SR leukemia
NCI-H226 lung = system: NCI-H226 lung
KM12 colon = system: KM12 colon
HOP-62 NSCLC = system: HOP-62 NSCLC
MALME-3M melanoma = system: MALME-3M melanoma
SN12C renal = system: SN12C renal
NCI-H23 lung = system: NCI-H23 lung
COLO 205 colon = system: COLO 205 colon
HCC-2998 colon = system: HCC-2998 colon
MDA-MB-231 breast = system: MDA-MB-231 breast
A549 NSCLC = system: A549 NSCLC
OVCAR-8 ovarian = system: OVCAR-8 ovarian
HCT-116 colon = system: HCT-116 colon
SF-539 CNS = system: SF-539 CNS
LOX IMVI melanoma = system: LOX IMVI melanoma
SK-MEL-28 melanoma = system: SK-MEL-28 melanoma
EKVX NSCLC = system: EKVX NSCLC
786-0 renal = system: 786-0 renal
NCI/ADR-RES ovarian = system: NCI/ADR-RES ovarian
CAKI-1 renal = system: CAKI-1 renal
SNB-19 CNS = system: SNB-19 CNS
RXF 393 renal = system: RXF 393 renal
MOLT-4 leukemia = system: MOLT-4 leukemia
MDA-N = system: MDA-N
K-562 leukemia = system: K-562 leukemia
SK-OV-3 ovarian = system: SK-OV-3 ovarian
RPMI-8226 leukemia = system: RPMI-8226 leukemia
SNB-75 CNS = system: SNB-75 CNS
PC-3 prostate = system: PC-3 prostate
SF-268 CNS = system: SF-268 CNS
HCT-15 colon = system: HCT-15 colon
DU-145 prostate = system: DU-145 prostate
ACHN renal = system: ACHN renal
TK-10 renal = system: TK-10 renal
SK-MEL-5 melanoma = system: SK-MEL-5 melanoma
SW-620 colon = system: SW-620 colon
UACC-62 melanoma = system: UACC-62 melanoma
MCF7 breast = system: MCF7 breast
HL-60(TB) leukemia = system: HL-60(TB) leukemia
HT29 colon = system: HT29 colon
M14 melanoma = system: M14 melanoma
UACC-257 melanoma = system: UACC-257 melanoma
OVCAR-5 ovarian = system: OVCAR-5 ovarian
UO-31 renal = system: UO-31 renal
U251 CNS = system: U251 CNS
NCI-H522 lung = system: NCI-H522 lung
IGROV1 ovarian = system: IGROV1 ovarian

Measured: GI50

CC(C)C(O)(C(=O)OCC1=CC2CCN1CC2)c1ccccc1 (stereo unspecified)
inactive: OVCAR-3 ovarian > 100 µM | SF-295 CNS > 100 µM | CCRF-CEM leukemia > 100 µM | T-47D breast > 100 µM | SR leukemia > 100 µM | NCI-H226 lung > 100 µM | KM12 colon > 100 µM | HOP-62 NSCLC > 100 µM | MALME-3M melanoma > 100 µM | SN12C renal > 100 µM | NCI-H23 lung > 100 µM | COLO 205 colon > 100 µM | HCC-2998 colon > 100 µM | MDA-MB-231 breast > 100 µM | A549 NSCLC > 100 µM | OVCAR-8 ovarian > 100 µM | HCT-116 colon > 100 µM | SF-539 CNS > 100 µM | LOX IMVI melanoma > 100 µM | SK-MEL-28 melanoma > 100 µM | EKVX NSCLC > 100 µM | 786-0 renal > 100 µM | NCI/ADR-RES ovarian > 100 µM | CAKI-1 renal > 100 µM | SNB-19 CNS > 100 µM | RXF 393 renal > 100 µM | MOLT-4 leukemia > 100 µM | MDA-N > 100 µM | K-562 leukemia > 100 µM | SK-OV-3 ovarian > 100 µM | RPMI-8226 leukemia > 100 µM | SNB-75 CNS > 100 µM | PC-3 prostate > 100 µM | SF-268 CNS > 100 µM | HCT-15 colon > 100 µM | DU-145 prostate > 100 µM | ACHN renal > 100 µM | TK-10 renal > 100 µM | SK-MEL-5 melanoma > 100 µM | SW-620 colon > 100 µM | UACC-62 melanoma > 100 µM | MCF7 breast > 100 µM | HL-60(TB) leukemia > 100 µM | HT29 colon > 100 µM | M14 melanoma > 100 µM | UACC-257 melanoma > 100 µM | OVCAR-5 ovarian > 100 µM | UO-31 renal > 100 µM | U251 CNS > 100 µM | NCI-H522 lung > 100 µM | IGROV1 ovarian > 100 µM

Reference: PubChem BioAssay (NCI)
